The values that follow come from patent US20070032529A1, “Pyrazole compounds and their use as antidiabetes agents” (Japan Tobacco Inc., priority 2005, published 2007).

The chains behind the UniProt entries cited, without tags or fusion partners.
UniProt P06737, whole entry: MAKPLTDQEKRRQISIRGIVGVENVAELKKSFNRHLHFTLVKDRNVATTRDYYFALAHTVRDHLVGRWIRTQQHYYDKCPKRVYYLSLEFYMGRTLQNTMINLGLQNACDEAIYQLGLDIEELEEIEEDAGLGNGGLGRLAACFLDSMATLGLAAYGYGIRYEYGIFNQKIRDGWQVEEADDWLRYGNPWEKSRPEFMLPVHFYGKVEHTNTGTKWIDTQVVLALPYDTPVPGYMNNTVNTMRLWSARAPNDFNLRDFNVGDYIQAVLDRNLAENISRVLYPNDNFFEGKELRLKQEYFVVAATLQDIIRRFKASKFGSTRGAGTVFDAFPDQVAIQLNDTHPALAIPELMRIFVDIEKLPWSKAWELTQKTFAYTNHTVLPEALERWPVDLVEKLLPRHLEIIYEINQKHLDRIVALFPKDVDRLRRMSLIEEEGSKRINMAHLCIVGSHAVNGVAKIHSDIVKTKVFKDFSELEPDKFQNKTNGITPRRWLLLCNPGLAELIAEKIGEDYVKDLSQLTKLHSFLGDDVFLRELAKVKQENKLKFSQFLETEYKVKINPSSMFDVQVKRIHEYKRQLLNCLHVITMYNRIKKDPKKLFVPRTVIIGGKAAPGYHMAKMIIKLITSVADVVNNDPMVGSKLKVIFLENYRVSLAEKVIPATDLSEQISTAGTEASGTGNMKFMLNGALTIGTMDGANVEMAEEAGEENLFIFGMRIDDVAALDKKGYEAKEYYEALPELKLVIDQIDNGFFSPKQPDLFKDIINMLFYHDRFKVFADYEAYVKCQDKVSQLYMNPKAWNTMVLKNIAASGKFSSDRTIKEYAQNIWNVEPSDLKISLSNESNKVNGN

This test concerns the target recombinant human liver glycogen phosphorylase (Homo sapiens, UniProt P06737). Description: Measuring liver glycogen phosphorylase activity (forward reaction system, NADPH absorbance at 340 nm). To be noted: class symbol, tested form: Na salt. The procedure: [Pharmacological Test] 1. Exemplary Test (1) Method for Measuring Liver Glycogen Phosphorylase Activity
The measurement of glycogen phosphorylase activity was carried out by a method using the forward reaction system.
The measurement of glycogen phosphorylase activity using the forward reaction system was carried out as follows. Glucose-1-phosphate prepared from glycogen by glycogen phosphorylase was converted into glucono-δ-lactone 6-phosphate through transphosphorylation and dehydrogenation using phosphoglucomutase and glucose-6-phosphate dehydrogenase (G6PDH). NADPH generated from NADP during the dehydrogenation by G6PDH was detected. […]
The enzymatic reaction was begun by adding 20 μL of the recombinant human liver glycogen phosphorylase solution and 20 μL of the mixture of phosphoglucomutase and G6PDH to the mixture of 20 μL of the glucose solution, 20 μL of the substrate, 100 μL of the buffer solution for reaction and 20 μL of the test compound solution. […] The absorbance at 340 nm was measured immediately after the reaction started. The absorbance at 340 nm was measured again after reacting at room temperature for 75 minutes. The enzymatic activity is a value obtained by subtracting the blank variation in absorbance over 75 minutes from the variation in absorbance over 75 minutes. […]

Structures are written as SMILES. Some results are limits rather than exact numbers.

As to `CN(C(=O)c1cc(NC(=O)c2cc(F)c(F)cc2Cl)[nH]n1)c1ccc(C(=O)NS(C)(=O)=O)cc1` [Example 6-5], the half-inhibitory concentration (IC50) was less than 100 nM.

As usually defined, the IC50 is the point on the concentration scale where inhibition reaches its midpoint.
